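Method: 48-hour compound exposure of cells in 96-well plates, five concentrations, linear interpolation of endpoints. Abbreviation: GI50, concentration required for 50% inhibition of growth. TGI: total growth inhibition.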
How the values were obtained:
Assay in all cases: growth of human tumour cells (NCI), 48 h
[1] = system: T-47D breast
[2] = system: DU-145 prostate
[3] = system: LOX IMVI melanoma
[4] = system: MOLT-4 leukemia
[5] = system: A498 renal
[6] = system: NCI-H23 lung
[7] = system: MCF7 breast
[8] = system: M14 melanoma
[9] = system: MDA-MB-231 breast
[10] = system: PC-3 prostate
[11] = system: SN12C renal
[12] = system: ACHN renal
[13] = system: RPMI-8226 leukemia
[14] = system: SF-539 CNS
[15] = system: TK-10 renal
[16] = system: SK-MEL-2 melanoma
[17] = system: SK-MEL-28 melanoma
[18] = system: HCT-15 colon
[19] = system: RXF 393 renal
[20] = system: SF-295 CNS
[21] = system: MALME-3M melanoma
[22] = system: HOP-62 NSCLC
[23] = system: NCI-H522 lung
[24] = system: UO-31 renal
[25] = system: NCI/ADR-RES ovarian
[26] = system: SW-620 colon
[27] = system: SK-OV-3 ovarian
[28] = system: NCI-H226 lung
[29] = system: EKVX NSCLC

## BrCCN(CCBr)c1ccc2c(c1)Cc1ccccc1-2
[1]
  GI50: 1480 nM
  TGI: 7390 nM
[2]
  GI50: 1830 nM
  TGI: 11100 nM
[3]
  GI50: 1110 nM
  TGI: 3780 nM
[4]
  GI50: 743 nM
  TGI: > 100000 nM
[5]
  GI50: 1560 nM
  TGI: 3670 nM
[6]
  GI50: 672 nM
  TGI: 3290 nM
[7]
  GI50: 253 nM
  TGI: 4490 nM
[8]
  GI50: 1300 nM
  TGI: 3550 nM
[9]
  GI50: 2750 nM
  TGI: 11600 nM
[10]
  GI50: 2040 nM
  TGI: 12800 nM
[11]
  GI50: 1270 nM
  TGI: 8060 nM
[12]
  GI50: 401 nM
  TGI: 3070 nM
[13]
  GI50: 1640 nM
  TGI: 8950 nM
[14]
  GI50: 1070 nM
  TGI: 5770 nM
[15]
  GI50: 2540 nM
  TGI: 6140 nM
[16]
  GI50: 2280 nM
  TGI: 4630 nM
[17]
  GI50: 2590 nM
  TGI: 7650 nM
[18]
  GI50: 1900 nM
  TGI: 7210 nM
[19]
  GI50: 1600 nM
  TGI: 3110 nM
[20]
  GI50: 1060 nM
  TGI: 4990 nM
[21]
  GI50: 1550 nM
  TGI: 4560 nM
[22]
  GI50: 1760 nM
  TGI: 5850 nM
[23]
  GI50: 1500 nM
  TGI: 3290 nM
[24]
  GI50: 1620 nM
  TGI: 4530 nM
[25]
  GI50: 1500 nM
  TGI: 5750 nM
[26]
  GI50: 997 nM
  TGI: 10600 nM
[27]
  GI50: 2170 nM
  TGI: 8600 nM
[28]
  GI50: 1530 nM
  TGI: 4630 nM
[29]
  GI50: 2250 nM
